# Assay results: PubChem BioAssay AID1564 (The Scripps Research Institute Molecular Screening Center, 2009)
# The chains behind the UniProt entries cited, without tags or fusion partners.
# UniProt P21453, whole entry, looked up: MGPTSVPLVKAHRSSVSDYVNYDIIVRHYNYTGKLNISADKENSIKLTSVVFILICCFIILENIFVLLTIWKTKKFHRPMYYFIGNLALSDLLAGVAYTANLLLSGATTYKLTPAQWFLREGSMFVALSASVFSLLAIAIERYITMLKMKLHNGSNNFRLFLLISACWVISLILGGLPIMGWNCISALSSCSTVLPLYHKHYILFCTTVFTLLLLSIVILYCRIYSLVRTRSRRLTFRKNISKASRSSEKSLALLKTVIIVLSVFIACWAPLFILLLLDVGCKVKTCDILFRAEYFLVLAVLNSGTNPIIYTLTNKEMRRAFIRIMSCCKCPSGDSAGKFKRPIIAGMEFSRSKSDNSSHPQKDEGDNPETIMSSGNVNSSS
# The list shows a part of the results, in another mix than the full data. Calls of active or inactive are those of the source. Cut-off read from the data, not from the text of the source: active = inhibition above about 40%; inactive = the rest.
# Molecular target: Sphingosine 1-phosphate receptor 1 (Homo sapiens) (UniProt P21453)
# Assay: S1P1 receptor antagonists, human, counter-screen for S1P4 antagonist project, cell-based (AID 1564);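 note: receptor stimulated with S1P near its EC80; 0% = agonist stimulated wells and 100% = vehicle only wells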
# Details: cell-based S1P1 antagonist counterscreen, at 4.98 µM, hits give high values
smiles,measurement,value
C[N+]1=C2C=CC=CC=C2SC12C([N+](=O)[O-])=CC([N+](=O)[O-])=C[C-]2[N+](=O)[O-] (stereo unspecified),inhibition,active: 46%
